From ChEMBL document CHEMBL1944590, “Synthesis of 3-phenylsulfonylmethyl cyclohexylaminobenzamide-derived antagonists of CC chemokine receptor 2 (CCR2)” (Bioorg Med Chem Lett, 2012) come the findings set out here.

Sequences of proteins named here, by UniProt entry; tags and fusion partners are left off. A change or cut given only in a name is not applied to a line headed by its entry.
UniProt P41597: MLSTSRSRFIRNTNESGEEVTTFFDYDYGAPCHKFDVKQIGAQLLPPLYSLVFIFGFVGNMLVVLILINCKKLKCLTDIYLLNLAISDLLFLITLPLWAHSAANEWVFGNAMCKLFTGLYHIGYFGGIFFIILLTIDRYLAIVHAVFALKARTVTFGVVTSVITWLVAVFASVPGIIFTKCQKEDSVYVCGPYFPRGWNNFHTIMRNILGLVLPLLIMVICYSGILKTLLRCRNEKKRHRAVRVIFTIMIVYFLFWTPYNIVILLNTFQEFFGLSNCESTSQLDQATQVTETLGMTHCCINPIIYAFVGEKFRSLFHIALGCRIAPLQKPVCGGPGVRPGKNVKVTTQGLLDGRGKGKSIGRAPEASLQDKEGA

Structures are written as SMILES.

The target of experiment [1] is T1, C-C chemokine receptor type 2 (Homo sapiens, UniProt P41597). The experiment is described as follows: Displacement of [125I]MCP-1 from CCR2 in human PMBC. In general terms: Loss of bound radioactivity is the signal in a displacement assay; it reports binding, not function.
The target of experiment [2] is T1, C-C chemokine receptor type 2. The experiment is described as follows: Displacement of [125I]MCP-1 from CCR2 in human THP1 cells. The format is cell-based, THP-1. The method in brief: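 Competition binding against [¹²⁵I]MCP-1 using THP-1 cells in place of peripheral blood mononuclear cells. IC50 typically given as the mean of two determinations.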

Turning to `N[C@@H]1CC[C@H](NC(=O)CNC(=O)c2cc(C(F)(F)F)ccc2NC(=O)N2CCC2)C[C@@H]1CS(=O)(=O)c1ccccc1` (racemic), the IC50 turned out to be 1.4 nM in experiment [1] and 6.6 nM in experiment [2].

In general, IC50 refers to the concentration that gives 50% inhibition. A high value points to weaker potency in that assay.
